Only a part is listed here, and it is no random draw. Some results for these compounds are left out of this collection, so the calls shown say nothing about other tests. The source made the active and inactive calls. Rule as the data show it: active = inhibition above about 26% (passing the limit was not always enough); inconclusive = no clear call, values can overlap the other calls.
The compounds below were run against Histone deacetylase 3 (Homo sapiens) (UniProt O15379) (assay: HDAC3 deacetylase inhibitors, primary screen, biochemical, fluorescence, cell-free homogeneous (AID 2718)). Conditions: recombinant HDAC3, fluorogenic peptide/trypsin coupled, at 8.3 µM, active compounds read high.

Chains of the proteins cited; added tags and fusions are not shown.
UniProt O15379, whole entry: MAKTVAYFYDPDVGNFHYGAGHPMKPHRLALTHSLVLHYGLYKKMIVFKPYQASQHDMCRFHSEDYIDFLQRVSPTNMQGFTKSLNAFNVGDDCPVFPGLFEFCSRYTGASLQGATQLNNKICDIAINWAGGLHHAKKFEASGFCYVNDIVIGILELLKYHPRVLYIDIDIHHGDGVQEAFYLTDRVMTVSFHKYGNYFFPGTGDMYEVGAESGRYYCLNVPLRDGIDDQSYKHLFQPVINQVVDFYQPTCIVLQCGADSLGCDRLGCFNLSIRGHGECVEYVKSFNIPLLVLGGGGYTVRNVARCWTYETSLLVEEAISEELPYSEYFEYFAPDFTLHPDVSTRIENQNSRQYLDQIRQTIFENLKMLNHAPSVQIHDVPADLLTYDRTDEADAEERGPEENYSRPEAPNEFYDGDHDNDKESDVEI

Compound | inhibition
Cc1ccccc1C(=O)NCC1(N2CCCCC2)CCCCC1 | inactive: 1.3%
CN(C)C1CCCC1OC(=O)C(O)(c1ccccc1)c1ccccc1 (centres undefined) | inactive: 5.08%
CN(C)c1ccc(C(=O)NCC2(N(C)C)CCCCC2)cc1 | inactive: 6.28%
COc1ccc(C(=O)NCC2(N(C)C)CCCCC2)cc1 | inactive: 1.39%
Cc1cc(C(=O)NCC2(N3CCCCC3)CCCCC2)ccc1[N+](=O)[O-] | inactive: 2.31%
CCN1CCCC(OC(=O)C2(O)c3ccccc3C=Cc3ccccc32)C1 (centres undefined) | inactive: -12.8%
O=C(NCC1(N2CCCCC2)CCCCC1)c1cccc(Br)c1 | inactive: -3.78%
C=CCN1CCN(CCOC(=O)C(O)(c2ccccc2)c2ccccc2)CC1 | inactive: 1.43%
O=C(NCC1(N2CCCCC2)CCCCC1)c1cc(F)c(F)cc1Cl | inactive: 0.922%
CN1[C@@H]2CC[C@H]1CC(OC(=O)C(O)(c1ccccc1)c1ccccc1)C2 (some centres undefined) | inactive: 1.62%
O=C(NCC1(N2CCCCC2)CCCCC1)c1cc([N+](=O)[O-])ccc1Cl | inactive: -0.798%
Cc1ccc(C(=O)NCC2(N3CCCCC3)CCCCC2)cc1 | inactive: 3.52%
CCN(CC)CC(C)C(C)OC(=O)C(O)(c1ccccc1)c1ccccc1 (centres undefined) | inactive: -4.55%
COc1cc(SC)ccc1C(=O)NCC1(N(C)C)CCCCC1 | inactive: 2.85%
CC(C)N1C(=O)CC2(CCN(CCOC(=O)C(O)(c3ccccc3)c3ccccc3)CC2)C1=O | inactive: -1.45%
O=C(OC1CN2CCC1CC2)C(CO)(c1ccccc1)c1ccccc1 (centres undefined) | inactive: -15.3%
CC(C)Oc1ccc(C(=O)NCC2(N(C)C)CCCCC2)cc1 | inactive: 0.197%
CN(C)c1cccc(C(=O)NCC2(N(C)C)CCCCC2)c1 | inactive: 6.6%
COc1ccc(Br)c(C(=O)NCC2(N3CCCCC3)CCCCC2)c1 | inactive: 0.726%
COc1cc(C(=O)NCC2(N(C)C)CCCCC2)c([N+](=O)[O-])cc1OC | inactive: 0.438%
CN(C)C1(CNC(=O)c2ccc(Br)cc2)CCCCC1 | inactive: 3.01%
O=C(NCC1(N2CCCCC2)CCCCC1)c1cccc(Cl)c1 | inactive: 3.3%
COc1cccc(C(=O)NCC2(N3CCCCC3)CCCCC2)c1 | inactive: 2.06%
COc1ccc(Cl)cc1C(=O)NCC1(N(C)C)CCCCC1 | inactive: 6.09%

From PubChem BioAssay AID2718 (Broad Institute, 2010)
